Experimental data from PubChem BioAssay AID1745856 (National Center for Advancing Translational Sciences (NCATS), 2022).
The list shows a part of the results, in another mix than the full data. Some of these compounds have results that are not shown, active ones among them. Inconclusive results are not listed. The source made the active and inactive calls. The call rests on the fitted dose curve.

Assay: Primary qHTS Assay for Foot and Mouth Disease Virus Antivirals against NCGC Sytravon and CBC Compound Libraries: Firefly Luciferase Signal; further: nearly all actives have a fitted effect of over 60% in size
Conditions: FMDV antiviral cell assay; at 57.5 µM (top of the series)
On the % scale 0 is the no-effect control and ±100 the full control effect.

Q: With `CC(CCN(CCCl)CCCl)c1ccccc1` (stereo not given) as the compound, how does the activity change, negative = inhibition read?
A: The activity change, negative = inhibition was inactive: -21.1%.

Q: With `CN(C)C1(CNC(=O)c2cccc(Cl)c2)CCCCC1` as the compound, how does the activity change, negative = inhibition read?
A: The activity change, negative = inhibition was inactive: -1.77%.

Q: Which activity change, negative = inhibition does the source give for `CN(C)C1(CNC(=O)c2ccccc2F)CCCCC1` here?
A: Its activity change, negative = inhibition is inactive: -21.7%.

Q: Which activity change, negative = inhibition does the source give for `CN(C)C1(CNC(=O)c2ccccc2[N+](=O)[O-])CCCCC1` here?
A: Its activity change, negative = inhibition is inactive: -3.59%.

Q: For `CCCCOc1ccccc1C(=O)NCC1(N(C)C)CCCCC1`, which activity change, negative = inhibition is on record?
A: The activity change, negative = inhibition was inactive: -24.3%.

Q: With `CCOc1ccccc1C(=O)NCC1(N(C)C)CCCCC1` as the compound, how does the activity change, negative = inhibition read?
A: Its activity change, negative = inhibition is inactive: 8.91%.

Q: For `CN(C)C1(CNC(=O)c2cccs2)CCCCC1`, which activity change, negative = inhibition is on record?
A: The activity change, negative = inhibition was inactive: -2.09%.

Q: For `CCOc1cccc(C(=O)NCC2(N(C)C)CCCCC2)c1`, which activity change, negative = inhibition is on record?
A: The activity change, negative = inhibition was inactive: -16.2%.

Q: For `O=C(NCC1(N2CCOCC2)CCCCC1)c1cc(=O)c2ccccc2o1`, which activity change, negative = inhibition is on record?
A: The activity change, negative = inhibition was inactive: -4.95%.

Q: For `COc1ccc(C(=O)NCC2(N(C)C)CCCCC2)cc1Cl`, which activity change, negative = inhibition is on record?
A: Its activity change, negative = inhibition is inactive: -21.4%.

Q: For `COc1cccc(C(=O)NCC2(N3CCOCC3)CCCCC2)c1`, which activity change, negative = inhibition is on record?
A: The activity change, negative = inhibition was inactive: -18.8%.

Q: For `CC(C)COc1ccc(C(=O)NCC2(N(C)C)CCCCC2)cc1`, which activity change, negative = inhibition is on record?
A: Its activity change, negative = inhibition is inactive: -15.8%.

Q: For `COc1cc(C(=O)NCC2(N(C)C)CCCCC2)cc(OC)c1OC`, which activity change, negative = inhibition is on record?
A: Its activity change, negative = inhibition is inactive: 11.3%.

Q: Which activity change, negative = inhibition does the source give for `Cc1cccc(C(=O)NCC2(N(C)C)CCCCC2)c1` here?
A: The activity change, negative = inhibition was inactive: -16.9%.

Q: Which activity change, negative = inhibition does the source give for `CC(C)Oc1ccc(C(=O)NCC2(N(C)C)CCCCC2)cc1` here?
A: Its activity change, negative = inhibition is inactive: 6.2%.
